# Assay results as given in patent US8153773B2, “Synthesis and use of anti-reverse phosphorothioate analogs of the messenger RNA cap” (Board of Supervisors of Louisiana State University and …, priority 2007, dated 2012).
# Chains of the proteins cited; added tags and fusions are not shown. Residues count along the entry.
# UniProt P63073, 28-217: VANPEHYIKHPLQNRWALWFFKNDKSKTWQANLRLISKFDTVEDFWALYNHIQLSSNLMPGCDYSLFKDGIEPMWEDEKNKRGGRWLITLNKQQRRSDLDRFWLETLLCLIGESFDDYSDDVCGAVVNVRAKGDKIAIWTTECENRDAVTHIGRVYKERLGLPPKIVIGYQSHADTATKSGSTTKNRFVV
# Biological target: T1, murine eIF4E (28-217) (Mus musculus, UniProt P63073)
# T1 construct: (28-217) to phosphorothioate cap analogs, as determined
# Assay: Binding affinities for eIF4E by fluorescence quenching
# Conditions: for KAS: equilibrium association constant, fluorescence quenching
# Method: Binding affinities of S analogs for murine eIF4E were determined by fluorescence quenching. Fluorescence titration measurements were carried out on an LS-50B spectrofluorometer (Perkin Elmer Co.) in 50 mM HEPES/KOH (pH 7.2), 100 mM KCl, 0.5 mM EDTA, 1 mM DTT at 20.0±0.2° C. Aliquots of 1 μl increasing concentration of cap analogue solutions were added to 1.4 ml of […] solutions. Fluorescence intensities (excitation at 280 nm with 2.5 nm bandwidth and detection at 337 nm with 4 nm bandwidth and 290 nm cut-off filter) were corrected taking into account sample dilution and the inner filter effect. Equilibrium association constants (KAS) were determined by fitting the theoretical dependence of the fluorescence intensity on the total concentration of cap analogue to the experimental data points according to equation described previously (See A. Niedzwiecka et al., “Biophysical studies of eIF4E cap-binding protein: recognition of mRNA 5′ cap structure and synthetic fragments of eIF4G and 4E-BP1 proteins,” J. Mol. Biol., vol. 319, pp. 615-635 (2002)). The concentration of protein was fitted as a free parameter of equilibrium equation showing amount of “active” protein. The final KAS was calculated as a weighted average of three to ten independent titrations, with the weights taken as the reciprocals of the numerical standard deviations squared. Numerical nonlinear least-squares regression analysis was performed using ORGIN 6.0 (Microcal Software Inc., USA). The Gibbs free energy of binding was calculated from the KAS value according to the standard equation ΔG°=−RTlnKAS.
substance,measurement,setting,value
m^7GpsppG (D2) [Compound 3b],ΔG°,binding free energy calculated from KAS,-9.39 ± 0.01 kcal/mol
same,KAS,,10.0 ± 0.2 µM⁻¹
same,KAS,listed as m^7GpsppG (D2),10.0 ± 0.2 µM⁻¹
